Experimental data as given in PubChem BioAssay AID624330 (Southern Research Specialized Biocontainment Screening …, 2012).
The entries are a selection whose mix differs from that of the whole data set. Measured potencies and affinities stand elsewhere. Activity calls are given as the source filed them.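 The calls were made as follows: active = first-screen hits whose inhibition reached a set limit at any dose in the follow-up dose series; inconclusive = inhibition above the set first-screen limit but never retested; inactive = the rest.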

Amino acid sequences for entries named in this document (tags omitted).
UniProt Q9H0H5, whole entry: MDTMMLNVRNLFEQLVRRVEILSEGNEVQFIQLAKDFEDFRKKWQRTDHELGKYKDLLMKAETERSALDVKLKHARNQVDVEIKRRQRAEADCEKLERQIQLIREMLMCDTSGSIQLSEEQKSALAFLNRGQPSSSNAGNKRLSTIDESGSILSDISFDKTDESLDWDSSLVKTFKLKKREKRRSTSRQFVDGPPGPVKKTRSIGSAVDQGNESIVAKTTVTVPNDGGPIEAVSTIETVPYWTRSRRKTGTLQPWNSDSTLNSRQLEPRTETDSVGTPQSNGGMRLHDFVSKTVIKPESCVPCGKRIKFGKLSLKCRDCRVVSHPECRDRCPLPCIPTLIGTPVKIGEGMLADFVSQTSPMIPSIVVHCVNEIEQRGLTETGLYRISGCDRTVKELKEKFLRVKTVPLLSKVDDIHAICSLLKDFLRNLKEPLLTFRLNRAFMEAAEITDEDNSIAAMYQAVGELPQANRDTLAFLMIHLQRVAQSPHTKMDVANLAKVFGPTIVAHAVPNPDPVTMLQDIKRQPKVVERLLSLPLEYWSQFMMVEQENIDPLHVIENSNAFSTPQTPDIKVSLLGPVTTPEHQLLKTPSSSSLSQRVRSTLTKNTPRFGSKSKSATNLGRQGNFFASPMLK

target: Rac GTPase-activating protein 1 (Homo sapiens) (UniProt Q9H0H5); test: MgcRacGAP GTPase-activating activity inhibitors, confirmation, biochemical, ADP Hunter fluorescence, primary and confirmatory (AID 624330); conditions: MgcRacGAP-stimulated Rac1 GTP hydrolysis, at 30 µM, active compounds read high, GST-tagged Rac1 F28L mutant substrate;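 also: fluorescence reports GDP produced by GAP-driven GTP hydrolysis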

Structure (SMILES)	inhibition
CCC(=O)N(c1ccccc1)C1(COC)CCN(CCc2cccs2)CC1	inactive: -1.7%
CCC(=O)N(c1ccccc1)C1(COC)CCN(CCn2nnn(CC)c2=O)CC1	inactive: 2.13%
